Values joined by “and” are separate entries in the source; they are usually repeats but may differ in a detail not shown here. Equal entries are not always repeated.
How the values were obtained:
[1] = system: human GGPPS; settings: read-out: IC50 human GGPPS; cited from earlier work
[2] = target: SaHepPPS (S. aureus heptaprenyl diphosphate synthase) (Staphylococcus aureus, UniProt Q2FYG6); test: HepPPS enzyme inhibition assay; type: biochemical; settings: IC50 against SaHepPPS

Protein sequences, listed by entry. Tags and fused reporters are not part of them. Lines headed by an entry give the natural chain unless they say otherwise; changes in a name come on top.
UniProt Q2FYG6: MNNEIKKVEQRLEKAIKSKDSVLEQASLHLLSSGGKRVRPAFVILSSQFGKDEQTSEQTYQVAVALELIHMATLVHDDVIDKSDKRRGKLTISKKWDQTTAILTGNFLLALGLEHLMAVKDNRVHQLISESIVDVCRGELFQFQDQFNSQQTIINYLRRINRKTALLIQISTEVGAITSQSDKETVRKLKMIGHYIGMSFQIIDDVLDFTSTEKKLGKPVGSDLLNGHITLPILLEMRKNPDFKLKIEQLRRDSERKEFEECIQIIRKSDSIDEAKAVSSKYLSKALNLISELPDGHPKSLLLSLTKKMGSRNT

For `O=P(O)(O)C(O)(Cn1ccnc1)P(=O)(O)O` [Compound 24, zoledronate], the IC50 [1] is listed as ~100000 nM.
For `CC(C)CCCC(C)CCOc1ccc[n+](CC(P(=O)([O-])O)P(=O)(O)O)c1` (centres unmarked) [Compound 74, Hydrogen(2-(3-((3,7-dimethyloctyl)oxy)pyridin-1-ium-1-yl)-1-phosphonoethyl) phosphonate], the IC50 [2] was 100 nM and ~100 nM and 10 to 100 nM.

Reference: paper PMC6427912 (Journal of medicinal chemistry, 2019)
